## Yeast mating assay 1: variants of the scFv Ab-14

Source: Engelhart et al. 2022 (doi:10.1038/s41597-022-01779-4), MIT Lincoln Laboratory and A-Alpha Bio; data file from the FLAb repository.

The target is the same throughout: PDVDLGDISGINAS, from the HR2 region of SARS-CoV-2 spike.

The variants keep the heavy chain, the linker and the frameworks of Ab-14 (scFv order VH, the linker GGGGSGGGGSGGGGS, VL).
VH: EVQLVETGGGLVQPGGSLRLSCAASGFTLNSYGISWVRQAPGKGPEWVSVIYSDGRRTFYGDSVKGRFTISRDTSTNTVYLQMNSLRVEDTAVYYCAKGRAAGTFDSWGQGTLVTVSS
VL: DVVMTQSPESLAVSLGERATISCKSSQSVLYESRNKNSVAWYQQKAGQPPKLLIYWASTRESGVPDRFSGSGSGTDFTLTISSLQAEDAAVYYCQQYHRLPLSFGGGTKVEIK

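The starting antibody came from a phage panning campaign against this peptide. Variants in AAYL50 differ from the parent at up to three CDR positions; double and triple changes were sampled at random. Affinity was read by AlphaSeq, a pooled yeast mating assay with surface-displayed partners. Pairs that bind mate more often; barcode pairs of the diploids are counted by sequencing. Scores were corrected for input abundance and mapped to Kd with protein pairs of known affinity run in the same pool. The assay was run in three technical replicates.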

Substitutions are numbered in sequence along the VL above, starting at 1 (not Kabat). All variants listed here change P101 of the VL, counted from its first residue. Kd is apparent (estimated from mating counts) and averaged on the log scale over replicates with a signal. Smaller is tighter. Where no diploid with the target was found in any replicate, the entry reads "nd": below detection, most likely a poor binder, though not proof of it. Entries are sorted by rising average, undetected variants last.

| changes | Kd (apparent) | detected |
|---|---|---|
| K36S/R99Y/P101I | 2.1 nM | 3/3 |
| S25A/P101A | 5.1 nM | 3/3 |
| K36E/H98W/P101A | 9.8 nM | 3/3 |
| W56M/Q96L/P101C | 12 nM | 3/3 |
| T59G/P101T | 15 nM | 3/3 |
| S38D/Q96M/P101L | 31 nM | 3/3 |
| E61A/P101Q | 40 nM | 3/3 |
| V29W/L100G/P101N | 77 nM | 3/3 |
| S26G/S38P/P101S | 110 nM | 3/3 |
| Q95A/Q96K/P101A | 150 nM | 3/3 |
| S25R/Y97Q/P101K | 190 nM | 3/3 |
| K24Y/P101C/S103M | 260 nM | 3/3 |
| N37P/E61G/P101R | 330 nM | 2/3 |
| L30E/N37F/P101H | 370 nM | 3/3 |
| A57H/E61D/P101K | 570 nM | 1/3 |
| S58R/Y97L/P101W | 640 nM | 1/3 |
| S58E/R60H/P101E | 890 nM | 3/3 |
| W56D/P101T | 960 nM | 3/3 |
| E61N/P101Y | 1.7 µM | 1/3 |
| S25R/R34V/P101I | 1.9 µM | 3/3 |
| R60S/P101S | 9.1 µM | 1/3 |
| S25M/W56F/P101W | 11 µM | 3/3 |
| N37V/P101Q | 12 µM | 1/3 |
| Y97D/P101E/L102T | 12 µM | 3/3 |
| R34P/N35E/P101H | 21 µM | 1/3 |
| S25P/L100A/P101T | 50 µM | 1/3 |
| S38T/V39P/P101M | 56 µM | 1/3 |
| S38K/E61L/P101C | 60 µM | 1/3 |
| R34T/P101K | 70 µM | 2/3 |
| Q27R/S28A/P101H | 81 µM | 2/3 |
| S25F/N37P/P101S | 170 µM | 2/3 |
| S38K/A57W/P101R | 180 µM | 1/3 |
| S33V/S38P/P101K | 870 µM | 1/3 |
| S33I/A57W/P101I | nd | 0/3 |
| N35V/P101Y | nd | 0/3 |
| S33H/W56V/P101R | nd | 0/3 |
| Y31H/S33T/P101D | nd | 0/3 |
| S26C/V29A/P101L | nd | 0/3 |
| S58V/P101E/S103E | nd | 0/3 |
| K24A/P101S | nd | 0/3 |
| K24H/R99G/P101V | nd | 0/3 |
| L30Y/A57L/P101W | nd | 0/3 |
| R34V/Q95T/P101C | nd | 0/3 |
| K24R/R60D/P101W | nd | 0/3 |
| E32V/H98M/P101G | nd | 0/3 |
| R60E/L100Y/P101S | nd | 0/3 |
| S25V/W56V/P101D | nd | 0/3 |
| E32G/P101Y/S103R | nd | 0/3 |
| A57H/S58H/P101S | nd | 0/3 |
| N35K/W56Q/P101W | nd | 0/3 |
| S38Y/P101M | nd | 0/3 |
| S28E/Q96N/P101G | nd | 0/3 |
| S25L/R99W/P101A | nd | 0/3 |
| E61G/P101K/L102C | nd | 0/3 |
| S28E/Y31P/P101M | nd | 0/3 |
| A57T/T59V/P101V | nd | 0/3 |

For reference, 8 entries of the list once more:

| changes | Kd (apparent) | detected |
|---|---|---|
| S25V/W56V/P101D | nd | 0/3 |
| T59G/P101T | 15 nM | 3/3 |
| S25F/N37P/P101S | 170 µM | 2/3 |
| S33V/S38P/P101K | 870 µM | 1/3 |
| S26C/V29A/P101L | nd | 0/3 |
| W56M/Q96L/P101C | 12 nM | 3/3 |
| S38T/V39P/P101M | 56 µM | 1/3 |
| A57T/T59V/P101V | nd | 0/3 |

Three control strains display no target. For library AAYL50, 18% of the pairings with them gave a signal, with a median of 15 µM and one signal in twenty below 970 nM, so weak values seen in few replicates may be background.